In PubChem BioAssay AID624256 (NMMLSC, 2012) one finds outcome data, which are given here for 25 molecules.

Structures are written as SMILES. The entries are a selection whose mix differs from that of the whole data set. Some results for these compounds are left out of this collection, so the calls shown say nothing about other tests. Calls of active or inactive are those of the source.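 Rule for the calls: active = normalized GFP-positive differentiation at or above the plate's own cutoff, the solvent-only control mean plus 3 SD; inconclusive = no clear call, values can overlap the other calls; inactive = the rest.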

The experiment in a line: HoxA9-arrested leukemia cell differentiation promoters – flow cytometry, MLPCN library, primary screen (AID 624256). To be noted: ER-HoxA9 myeloid progenitors, lysozyme-GFP differentiation, at 10 µM. Background: A flow cytometer gives signals particle by particle.
Turning to `O=C(OC1CN2CCC1CC2)C(CO)(c1ccccc1)c1ccccc1` (stereo not given), the molecule was called inactive.
The result for `C=C(C)C#CC(O)(C(=O)OC1CCN(C)CC1)c1ccccc1` (stereo not given) reads “inactive”; that for `COc1ccc(Br)c(C(=O)NCC2(N3CCCCC3)CCCCC2)c1`, “inactive”.
`CC(C)Oc1ccc(C(=O)NCC2(N(C)C)CCCCC2)cc1`: the call was inactive.
For `O=C(OCCN1CCCC1)C(O)(c1ccccc1)c1ccccc1`, the result was inactive.
`CN(C)c1cccc(C(=O)NCC2(N(C)C)CCCCC2)c1`: the call was inactive.
The result for `CN(C)C1(CNC(=O)c2ccc(Br)cc2)CCCCC1` reads “inactive”; that for `COc1cc(C(=O)NCC2(N(C)C)CCCCC2)c([N+](=O)[O-])cc1OC`, “inactive”.
The result for `COc1cccc(C(=O)NCC2(N3CCCCC3)CCCCC2)c1` reads “inactive”.
`COc1ccc(Cl)cc1C(=O)NCC1(N(C)C)CCCCC1`: the result was inactive.
With `O=C(NCC1(N2CCCCC2)CCCCC1)c1cccc(Cl)c1`, the call was inactive.
To `Cc1ccccc1C(=O)NCC1(N2CCCCC2)CCCCC1` belongs “inactive”.
Regarding `CN(C)c1ccc(C(=O)NCC2(N(C)C)CCCCC2)cc1`, the result was inactive.
To `CN(C)C1CCCC1OC(=O)C(O)(c1ccccc1)c1ccccc1` (stereo not given) belongs “inactive”; to `C=CCN1CCN(CCOC(=O)C(O)(c2ccccc2)c2ccccc2)CC1`, “inactive”; to `O=C(NCC1(N2CCCCC2)CCCCC1)c1cc(F)c(F)cc1Cl`, “inactive”.
The result for `COc1ccc(C(=O)NCC2(N(C)C)CCCCC2)cc1` reads “inactive”; that for `CCN1CCCC(OC(=O)C2(O)c3ccccc3C=Cc3ccccc32)C1` (stereo not given), “inactive”; that for `Cc1cc(C(=O)NCC2(N3CCCCC3)CCCCC2)ccc1[N+](=O)[O-]`, “inactive”.
To `O=C(NCC1(N2CCCCC2)CCCCC1)c1cc([N+](=O)[O-])ccc1Cl` belongs “inactive”; to `CN1[C@@H]2CC[C@H]1CC(OC(=O)C(O)(c1ccccc1)c1ccccc1)C2` (stereo not given in full), “inactive”; to `CCN(CC)CC(C)C(C)OC(=O)C(O)(c1ccccc1)c1ccccc1` (stereo not given), “inactive”.
As to `COc1cc(SC)ccc1C(=O)NCC1(N(C)C)CCCCC1`, the result was inactive.
The result for `CC(C)N1C(=O)CC2(CCN(CCOC(=O)C(O)(c3ccccc3)c3ccccc3)CC2)C1=O` reads “inactive”; that for `Cc1ccc(C(=O)NCC2(N3CCCCC3)CCCCC2)cc1`, “inactive”.
